Biological target: human β3 adrenergic receptor (Homo sapiens, UniProt P13945)
Assay: Functional assay: cAMP production (LANCE TR-FRET) in CHO cells stably transfected with cloned β3 adrenergic receptor
Assay type: cell-based
Conditions: read-out: Human β3 Functional; Table 5

Chains of the proteins cited; added tags and fusions are not shown.
UniProt P13945, whole entry: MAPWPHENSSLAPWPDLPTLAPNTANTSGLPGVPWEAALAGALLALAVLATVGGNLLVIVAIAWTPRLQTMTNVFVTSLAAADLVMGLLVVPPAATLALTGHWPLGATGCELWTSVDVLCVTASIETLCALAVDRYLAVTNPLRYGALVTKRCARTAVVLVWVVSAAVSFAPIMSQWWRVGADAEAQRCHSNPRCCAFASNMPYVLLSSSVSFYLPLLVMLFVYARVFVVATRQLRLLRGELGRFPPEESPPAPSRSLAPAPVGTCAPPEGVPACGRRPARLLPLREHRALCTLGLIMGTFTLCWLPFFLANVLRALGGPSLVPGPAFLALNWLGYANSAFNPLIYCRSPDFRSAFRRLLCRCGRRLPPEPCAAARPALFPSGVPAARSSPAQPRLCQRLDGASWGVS

SMILES | EC50
Cc1nnc(C(C)C(=O)Nc2ccc(C[C@@H]3CC[C@H]([C@H](O)c4ccccc4)N3)cc2)[nH]1 (single isomer, unassigned) | 1 to 10 nM
CC(C(=O)Nc1ccc(C[C@@H]2CC[C@H]([C@H](O)c3ccccc3)N2)cc1)n1cnccc1=O (single isomer, unassigned) | 1 to 10 nM

— patent publication US8399480B2, “Hydroxymethyl pyrrolidines as beta 3 adrenergic receptor agonists” (Merck Sharp & Dohme Corp., priority 2008, dated 2013)
